In US20170275298A1, “INHIBITORS OF THE RENAL OUTER MEDULLARY POTASSIUM CHANNEL” (Merck Sharp & Dohme Corp., priority 2014, published 2017):
pIC50: −log10 of the molar value. Like-named read-outs stand apart in the source and are kept apart here.

Target: T1, hROMK (hKir1.1) (Homo sapiens, UniProt P48048)
T1 construct: expressed in transfected cells
T1 sequence (P48048 1-391): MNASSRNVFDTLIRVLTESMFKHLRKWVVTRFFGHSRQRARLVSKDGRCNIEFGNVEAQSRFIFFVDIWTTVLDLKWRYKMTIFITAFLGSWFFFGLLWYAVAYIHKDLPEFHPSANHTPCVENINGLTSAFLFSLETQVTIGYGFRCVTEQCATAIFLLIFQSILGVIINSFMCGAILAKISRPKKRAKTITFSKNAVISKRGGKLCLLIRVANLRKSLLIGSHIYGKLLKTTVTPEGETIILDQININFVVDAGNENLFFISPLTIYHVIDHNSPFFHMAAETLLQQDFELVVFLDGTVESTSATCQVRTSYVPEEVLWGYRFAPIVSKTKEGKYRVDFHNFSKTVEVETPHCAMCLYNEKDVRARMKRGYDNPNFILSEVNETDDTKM
Test: Thallium Flux Assay (ROMK channel functional thallium flux assay)
Format: cell-based
Method: The following Thallium Flux Assay was performed on each of the final product compounds in the Examples.
HEK293 cells stably expressing hROMK (hKir1.1) were grown at 37° C. in a 10% CO2 humidified incubator in complete growth media: Dulbecco's Modified Eagle Medium supplemented with non-essential amino acids, Penicillin/Streptomycin/Glutamine, G418 and FBS. At >80% confluency, the media was aspirated from the flask and rinsed with 10 mL calcium/magnesium-free PBS. […] To dislodge the cell, the side of the flask was gently banged with one's hand. The cells completely titrated and then the cells were transferred to 25 mL complete media, centrifuged at 1,500 rpm for 6 min followed by resuspension in complete growth media and determine cell concentration. […] Under ideal growth conditions and appropriate tissue culture practices, this cell line is stable for 40-45 passages.
• FluxOR™ Reagent (Component A) • FluxOR™ Assay Buffer (Component B)—10× Concentrate • PowerLoad™ Concentrate (Component C)—100× Concentrate • Probenecid (Component D)—Lyophilized sample is kept at −20° C. Water soluble, 100× after solubilization in 1 mL water. […] Store at 4° C. • Thallium sulfate (Tl2SO4) Concentrate (Component G)—50 mM in water. Store at 4° C. • DMSO (dimethyl sulfoxide, Component H)—1 mL (100%)
Can be stored at room temperature • Stimulant Buffer (prepared at 5× final concentration in 1×FluxOR™ Chloride-Free Buffer): 7.5 mM thallium sulfate and 0.75 mM potassium sulfate (to give a final assay concentration of 3 mM Thallium/0.3 mM potassium). Store at 4° C. when not in use. If kept sterile, this solution is good for months.
The ROMK channel functional thallium flux assay was performed in 384 wells, using the FLIPR-Tetra instrument. HEK-hKir1.1 cells were seeded in Poly-D-Lysine microplates and kept in a 37° C.-10% CO2 incubator overnight. On the day of the experiment, the growth media was replaced with the FluxOR™ reagent loading buffer and incubated, protected from light, at ambient temperature (23-25° C.) for 90 min. The loading buffer was replaced with assay buffer±test compound followed by 30 min incubation at ambient temperature, where the thallium/potassium stimulant was added to the microplate.
1. Seed HEK-hKir1.1 cells (50 μl at 20,000 cells/well) in 384-well PDL coated Microplates 2. Allow cells to adhere overnight in humidified 37° C./10% CO2 incubator 3. Completely remove cell growth media from microplate and replace with 25 μl loading buffer 4. […]
The fluorescence intensity of wells containing 3 μM of a standard control ROMK inhibitor of the present invention was used to define the ROMK-sensitive component of thallium flux. Fluorescence in the presence of test compounds was normalized to control values to provide % fluorescence change.

With `Cc1c([C@@H](O)CN2CCC3(CC2)CCN(c2cnsn2)C3=O)ccc2c1COC2=O` [Example 75, (R)-8-(2-hydroxy-2-(4-methyl-1-oxo-1,3-dihydroisobenzofuran-5-yl)ethyl)-2-(1,2,5-thiadiazol-3-yl)-2,8-diazaspiro[4.5]decan-1-one] the pIC50 (read-out: ROMK TI IC50) was 7.33.

`Cc1c([C@@H](O)CN2CCC3(CC2)CCN(c2ncns2)C3=O)ccc2c1COC2=O` [Example 63, (R)-8-(2-hydroxy-2-(4-methyl-1-oxo-1,3-dihydroisobenzofuran-5-yl)ethyl)-2-(1,2,4-thiadiazol-5-yl)-2,8-diazaspiro[4.5]decan-1-one] was tested, and the pIC50 (read-out: ROMK TI IC50) was 6.89.

Compound `Cc1c([C@@H](O)CN2CCC3(CC2)CCN(c2ccns2)C3=O)ccc2c1COC2=O` [Example 60, (R)-8-(2-hydroxy-2-(4-methyl-1-oxo-1,3-dihydroisobenzofuran-5-yl)ethyl)-2-(isothiazol-5-yl)-2,8-diazaspiro[4.5]decan-1-one] has a pIC50 of 8.28.

`Cc1c([C@@H](O)CN2CCC3(CC2)CCN(c2cc(-c4ccccc4)ns2)C3=O)ccc2c1COC2=O` [Example 62, (R)-8-(2-hydroxy-2-(4-methyl-1-oxo-1,3-dihydroisobenzofuran-5-yl)ethyl)-2-(3-phenylisothiazol-5-yl)-2,8-diazaspiro[4.5]decan-1-one] showed a pIC50 (read-out: ROMK TI IC50) of 6.47.
